Source: PubChem BioAssay (EPA / NIEHS)
The entries are a selection whose mix differs from that of the whole data set. The source made the active and inactive calls. Rule for the calls: active = hit-call score of the fitted dose curve at least 0.9, where 1 is the maximum; inactive = score below 0.9.

Chains of the proteins cited; added tags and fusions are not shown.
UniProt P10415, whole entry: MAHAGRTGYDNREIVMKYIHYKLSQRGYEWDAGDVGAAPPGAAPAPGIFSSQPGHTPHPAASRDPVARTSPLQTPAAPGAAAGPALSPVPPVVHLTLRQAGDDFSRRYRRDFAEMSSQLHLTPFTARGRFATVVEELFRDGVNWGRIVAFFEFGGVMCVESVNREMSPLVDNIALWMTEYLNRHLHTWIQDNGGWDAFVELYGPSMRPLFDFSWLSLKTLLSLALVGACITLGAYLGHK
UniProt P42574, whole entry: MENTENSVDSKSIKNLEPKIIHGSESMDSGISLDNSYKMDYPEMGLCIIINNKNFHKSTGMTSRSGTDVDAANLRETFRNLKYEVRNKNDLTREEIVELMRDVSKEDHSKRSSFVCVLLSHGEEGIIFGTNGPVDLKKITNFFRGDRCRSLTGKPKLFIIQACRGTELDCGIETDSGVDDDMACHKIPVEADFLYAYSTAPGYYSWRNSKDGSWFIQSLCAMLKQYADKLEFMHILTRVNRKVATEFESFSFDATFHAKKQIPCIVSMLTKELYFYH

Assays:
Conditions in all cases: actives raise or lower the signal; mRNA level, 48 h
[1] = read-out: Alkaline Phosphatase, Placental (ALPP) gene, ALPP (gene 250); experiment: LTEA_HepaRG_ALPP: Life Technologies and Expression Analysis (LTEA) Assay for Alkaline Phosphatase, Placental (ALPP) gene using HepaRG (AID 2283468)
Summary of the method: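 HepaRG cells plated 48 h, then exposed in duplicate for 48 h in serum-free induction medium to 8-point half-log series from 100 uM in 0.5% DMSO. ALPP mRNA by TaqMan qRT-PCR, normalized to ACTB/GAPDH/POLR2A; bidirectional fit versus DMSO.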

[2] = read-out: Bcl-2 (BAD) gene, BAD (gene 572); experiment: LTEA_HepaRG_BAD: Life Technologies and Expression Analysis (LTEA) Assay for Bcl-2 (BAD) gene using HepaRG (AID 2283469)
Summary of the method: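 Read-out: qRT-PCR of BAD mRNA, normalized to three housekeeping genes. Human HepaRG cultures got 48 h chemical exposure in 0.5% DMSO, duplicate eight-point half-log series topping at 100 uM. Gain or loss of signal fitted versus DMSO vehicle.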

[3] = read-out: Bcl-2 (BAX) gene, BAX (gene 581); experiment: LTEA_HepaRG_BAX: Life Technologies and Expression Analysis (LTEA) Assay for Bcl-2 (BAX) gene using HepaRG (AID 2283470)
Summary of the method: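 Gene expression measured by Fluidigm qRT-PCR with three housekeeping genes for normalisation. HepaRG cells, plated 48 h beforehand, treated 48 h at up to 100 uM (8-point, half-log) in 0.5% DMSO. Bidirectional fitting versus DMSO.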

[4] = read-out: adenosine kinase (ADK) gene, ADK (gene 132); experiment: LTEA_HepaRG_ADK: Life Technologies and Expression Analysis (LTEA) Assay for adenosine kinase (ADK) gene using HepaRG (AID 2283471)
Summary of the method: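 HepaRG (human liver), 48 h chemical exposure, 8-pt half-log series, top 100 uM, 0.5% DMSO vehicle. Readout: ADK mRNA by qRT-PCR vs housekeeping genes; bidirectional curve fit relative to DMSO baseline.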

[5] = read-out: Alpha-fetoprotein (AFP) gene, AFP (gene 174); experiment: LTEA_HepaRG_AFP: Life Technologies and Expression Analysis (LTEA) Assay for Alpha-fetoprotein (AFP) gene using HepaRG (AID 2283472)
Summary of the method: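 AFP transcript measured by TaqMan qRT-PCR with three housekeeping genes for normalization, after 48 h chemical treatment of HepaRG cells (top 100 uM, half-log steps, 0.5% DMSO). Gain or loss fitted against vehicle.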

BCL2L11 (gene 10018) = experiment: LTEA_HepaRG_BCL2L11: Life Technologies and Expression Analysis (LTEA) Assay for Bcl-2 (BCL2L11) gene using HepaRG (AID 2283473)
Summary of the method: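 Differentiated human HepaRG cells were exposed 48 h in serum-free induction medium to eight half-log concentrations up to 100 uM in 0.5% DMSO, in duplicate. BCL2L11 mRNA was quantified by TaqMan qRT-PCR, normalized to ACTB, GAPDH and POLR2A; induction or repression fitted versus DMSO.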

[6] = read-out: Apolipoprotein A-V (APOA5) gene, APOA5 (gene 116519); experiment: LTEA_HepaRG_APOA5: Life Technologies and Expression Analysis (LTEA) Assay for Apolipoprotein A-V (APOA5) gene using HepaRG (AID 2283474)
Summary of the method: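 Differentiated HepaRG cells in serum-free induction medium, exposed 48 h in duplicate to eight half-log concentrations topping at 100 uM (0.5% DMSO). APOA5 mRNA by Fluidigm TaqMan qRT-PCR, normalized to ACTB, GAPDH and POLR2A; bidirectional fit versus DMSO.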

[7] = read-out: Apoptosis regulator Bcl-2 (Homo sapiens) (UniProt P10415); experiment: LTEA_HepaRG_BCL2: Life Technologies and Expression Analysis (LTEA) Assay for Bcl-2 gene using HepaRG (AID 2283475)
Description: (§1) LTEA_HepaRG is a cell based, multiplexed-readout assay that uses HepaRG, a human liver cell line, with measurements taken at 48 hours after chemical dosing on a 96-well plate.LTEA_HepaRG_BCL2 is one of 102 assay component(s) measured in the LTEA HepaRG cell culture assay. It is a marker of Cell proliferation, survival, death.Data from the assay component LTEA_HepaRG_BCL2 was analyzed into 1 endpoint. This assay endpoint, LTEA_HepaRG_BCL2, was analyzed with bidirectional fitting relative to DMSO as the negative control and baseline of activity. Using a type of inducible reporter, measures of mRNA induction for gain or loss-of-signal activity can be used to understand regulation of transcription factor activity. To generalize the intended target to other relatable targets, this assay endpoint is annotated to the cell cycle intended target family, where the subfamily is Cell proliferation, survival, death.
(§2) A total of 1060 chemcials from the ToxCast library were tested in eight-point concentration-response experiments. Cell culture and cytotoxicity assays were conducted at Thermo Fisher Scientific's Custom Services facility (Madison, WI). A single lot of human HepaRG cells (Thermo Fisher Scientific, Frederick, MD) was used for the cell culture experiments. 96-well format collagen type I coated plates of human HepaRG cells were prepared using established methods. Briefly, cryopreserved HepaRG cells were thawed, plated at a density of approximately 100,000 cells/well in HepaRG Thaw, Plate, and General Purpose media (HPRG770, Thermo Fisher Scientific), and incubated for 48 hours. 0.5% DMSO was selected as vehicle control to balance the requisite need of DMSO in HepaRG cultures to maintain differentiation (for example, baseline metabolism, proportions of hepatocytes vs. cholangiocytes), while enabling further hepatic receptor pathway activation (for example, PXR and CAR) in response to chemical exposure. 48 hours after plating, the culture medium was replaced with HepaRG Serum-Free Incudtion Media. Cells were exposed to each test chemical in duplicate and maintained in CO2 incubators for another 48 hours. Chemical plates were thawed to room temperature and 200x concentrations of treatment groups were prepared. 8-point conentration-reponse curves were made with the highest exposure at 100 uM, followed by half-log dilutions, all in 0.5% DMSO. Each test plate contained variouse controls, induction positive controls (1mM phenobarbital), cytotoxicity positive controls ([…] aflatoxin B1), vehicle controls (0.5% DMSO), and total lysis controls (0.5% DMSO). Cell morphology images were taken using an Essen IncuCyte FLR automated microscope, with six 96-well plates imaged in about 24 minutes. Images were captured and exported and JPEG files. Spent culture media was transfered to black-well plates for the LDH assay, and remaining media was sorted at -80 C for later use. Cells were treated with RLT buffer and frozen until shipped for gene expression analysis. Total RNA was isolated from the cell suspension in 75 uL of Buffer RLT (Qiagen, Germantown, MD 20874) by Quintiles/Expression Analysis (Durham, NC) using a custom isolation procedure. Total RNA from each plate well was transferred to a preamplification plate. Fluidigm's 96.96 Dynamic ArrayTM (Fluidigm, Amsterdam, the Netherlands) technology was used for gene expression analyses by quantitative reverse transcription polymerase chain reaction (qRT-PCR, performed by Quintiles/Expression Analysis, Durham, NC)89. […]

[8] = read-out: Bcl-2 (BID) gene, BID (gene 637); experiment: LTEA_HepaRG_BID: Life Technologies and Expression Analysis (LTEA) Assay for Bcl-2 (BID) gene using HepaRG (AID 2283476)
Summary of the method: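 Duplicate 48 h treatments of HepaRG cells in serum-free induction medium spanned 100 uM downward in half-log steps, 0.5% DMSO. Transcript change quantified by qRT-PCR against three housekeeping genes, fitted up or down versus DMSO.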

Caspase-3 (Homo sapiens) = Caspase-3 (Homo sapiens) (UniProt P42574); experiment: LTEA_HepaRG_CASP3: Life Technologies and Expression Analysis (LTEA) Assay for cysteine-aspartic acid protease (CASP3) using HepaRG (AID 2283477)
Description: as §1, with “96-well plate.LTEA_HepaRG_CASP3” for “96-well plate.LTEA_HepaRG_BCL2”, “component LTEA_HepaRG_CASP3” for “component LTEA_HepaRG_BCL2”, “endpoint, LTEA_HepaRG_CASP3,” for “endpoint, LTEA_HepaRG_BCL2,”, “the protease” for “the cell cycle”, “is cysteine protease.” for “is Cell proliferation, survival, death.”
as §2

Measured: outcome

CC(C)OP(C)(=O)OC(C)C
inactive: all assays above

Cc1cccc([N+](=O)[O-])c1[N+](=O)[O-]
inactive: all assays above

O=[N+]([O-])c1cccc([N+](=O)[O-])c1
inactive: all assays above

Cc1ccc([N+](=O)[O-])cc1[N+](=O)[O-]
inactive: all assays above

Cc1c([N+](=O)[O-])cccc1[N+](=O)[O-]
inactive: all assays above
